In ChEMBL document CHEMBL4152231, “Identification of novel 2-benzyl-1-indanone analogs as interleukin-5 inhibitors” (Eur J Med Chem, 2018) one finds inhibition data, which are given here for one compound.

The structures appear in SMILES notation.

Usually inhibition stands for how much of the control response was suppressed. Lower therefore signals a weak effect.

The target of this assay is T1, Interleukin-5 (Mus musculus) (UniProt P04401).
T1 sequence (whole entry): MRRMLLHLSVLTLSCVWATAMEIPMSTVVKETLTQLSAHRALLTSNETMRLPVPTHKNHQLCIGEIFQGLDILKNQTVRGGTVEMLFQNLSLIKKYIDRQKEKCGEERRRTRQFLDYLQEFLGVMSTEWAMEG
The conditions noted are these: 50 uM.

Take `CCCC1O[C@H]2C[C@H]3[C@@H]4CCC5=CC(=O)C=C[C@]5(C)[C@H]4[C@@H](O)C[C@]3(C)[C@]2(C(=O)CO)O1` (stereo partly specified): the inhibition was determined as 70.2%.
